Test results: patent US9371280B2, “Substituted pyrrolidine-2-carboxamides” (Hoffmann-La Roche Inc., priority 2012, dated 2016)
Where a name gives a salt, the structure may show the parent alone.

By UniProt entry, the sequences of proteins in these tests, tags left out.
UniProt Q00987, whole entry: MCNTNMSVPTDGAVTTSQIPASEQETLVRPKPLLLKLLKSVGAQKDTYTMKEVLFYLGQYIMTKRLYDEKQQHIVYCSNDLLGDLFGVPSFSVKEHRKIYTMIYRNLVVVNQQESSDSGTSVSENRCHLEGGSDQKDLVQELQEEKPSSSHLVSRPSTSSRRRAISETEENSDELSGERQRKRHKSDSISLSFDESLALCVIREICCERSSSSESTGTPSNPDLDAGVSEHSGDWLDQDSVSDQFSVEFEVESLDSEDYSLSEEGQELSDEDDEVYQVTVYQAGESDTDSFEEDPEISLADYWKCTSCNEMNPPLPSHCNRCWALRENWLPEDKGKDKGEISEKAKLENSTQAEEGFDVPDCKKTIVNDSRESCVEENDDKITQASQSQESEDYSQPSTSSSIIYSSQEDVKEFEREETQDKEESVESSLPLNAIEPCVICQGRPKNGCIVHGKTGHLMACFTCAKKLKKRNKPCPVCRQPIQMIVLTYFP

Target: interaction between p53 and MDM2 proteins (recombinant GST-tagged MDM2) (Homo sapiens, UniProt Q00987)
Assay: HTRF assay of inhibition of the p53-MDM2 interaction (GST-MDM2 / biotinylated p53 peptide);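 further: FRET read-out from Eu-labelled anti-GST antibody to streptavidin-APC, with 90 nM N-terminally biotinylated p53 peptide and 160 ng/ml GST-MDM2 in Tris-borate saline containing 1 mM DTT, 384-well format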
Assay type: binding
Details: 0.02% BSA, 37° C. 1 h
Procedure: The ability of the compounds to inhibit the interaction between p53 and MDM2 proteins was measured by an HTRF (homogeneous time-resolved fluorescence) assay in which recombinant GST-tagged MDM2 binds to a peptide that resembles the MDM2-interacting region of p53 (Lane et al.). Binding of GST-MDM2 protein and p53-peptide (biotinylated on its N-terminal end) is registered by the FRET (fluorescence resonance energy transfer) between Europium (Eu)-labeled anti-GST antibody and streptavidin-conjugated Allophycocyanin (APC).
Incubate at 37° C. for 1 h. […] If not specified, the reagents were purchased from Sigma Chemical Co.

“4-{[(2R,3S,4R,5S)-4-(4-Chloro-2-fluoro-phenyl)-3-(3-chloro-2-fluoro-phenyl)-4-cyano-5-(2,2-dimethyl-propyl)-pyrrolidine-2-carbonyl]-amino}-3-methoxy-benzoic acid, mPEG-350 ester, trifluoroacetate salt [Example 58]” and `COc1cc(C(=O)OCCOC(=O)[C@H](C)NC(=O)OC(C)(C)C)ccc1NC(=O)[C@@H]1N[C@@H](CC(C)(C)C)[C@](C#N)(c2ccc(Cl)cc2F)[C@H]1c1cccc(Cl)c1F` [Example 3, 4-{[(2R,3S,4R,5S)-3-(3-Chloro-2-fluoro-phenyl)-4-(4-chloro-2-fluoro-phenyl)-4-cyano-5-(2,2-dimethyl-propyl)-pyrrolidine-2-carbonyl]-amino}-3-methoxy-benzoic acid 2-((S)-2-tert-butoxycarbonylamino-propionyloxy)-ethyl ester] are the same in IC50: 0.0144 µM for the first, 0.0144 µM for the second.

Going from “4-{[(2R,3S,4R,5S)-4-(4-Chloro-2-fluoro-phenyl)-3-(3-chloro-2-fluoro-phenyl)-4-cyano-5-(2,2-dimethyl-propyl)-pyrrolidine-2-carbonyl]-amino}-3-methoxy-benzoic acid 2-[4-(2-hydroxy-ethyl)-piperazin-1-yl]-ethyl ester, mPEG-750 ester, hydrochloride salt [Example 63]” to “4-{[(2R,3S,4R,5S)-4-(4-Chloro-2-fluoro-phenyl)-3-(3-chloro-2-fluoro-phenyl)-4-cyano-5-(2,2-dimethyl-propyl)-pyrrolidine-2-carbonyl]-amino}-3-methoxy-benzoic acid, mPEG-2000 amide [Example 81]”, the IC50 rises from 0.0148 µM to 0.0284 µM (1.9-fold). The first is the more potent here.

First: CN[C@@H](C)C(=O)N[C@H](C(=O)OCCOC(=O)c1ccc(NC(=O)[C@@H]2N[C@@H](CC(C)(C)C)[C@](C#N)(c3ccc(Cl)cc3F)[C@H]2c2cccc(Cl)c2F)c(OC)c1)C(C)C [Example 34, 4-{[(2R,3S,4R,5S)-4-(4-Chloro-2-fluoro-phenyl)-3-(3-chloro-2-fluoro-phenyl)-4-cyano-5-(2,2-dimethyl-propyl)-pyrrolidine-2-carbonyl]-amino}-3-methoxy-benzoic acid 2-[(S)-3-methyl-2-((S)-2-methylamino-propionylamino)-butyryloxy]-ethyl ester, hydrochloride]
Second: 4-{[(2R,3S,4R,5S)-4-(4-Chloro-2-fluoro-phenyl)-3-(3-chloro-2-fluoro-phenyl)-4-cyano-5-(2,2-dimethyl-propyl)-pyrrolidine-2-carbonyl]-amino}-3-methoxy-benzoic acid, mPEG-1000 amide [Example 79]
The IC50 of the first is 2.4-fold lower: 0.0144 µM for the first, 0.0345 µM for the second. The first is the more potent here.

`COc1cc(C(=O)OCC(=O)NCCOCCO)ccc1NC(=O)[C@@H]1N[C@@H](CC(C)(C)C)[C@](C#N)(c2ccc(Cl)cc2F)[C@H]1c1cccc(Cl)c1F` [Example 74, 4-{[(2R,3S,4R,5S)-4-(4-Chloro-2-fluoro-phenyl)-3-(3-chloro-2-fluoro-phenyl)-4-cyano-5-(2,2-dimethyl-propyl)-pyrrolidine-2-carbonyl]-amino}-3-methoxy-benzoic acid [2-(2-hydroxy-ethoxy)-ethylcarbamoyl]-methyl ester] and “4-{[(2R,3S,4R,5S)-4-(4-Chloro-2-fluoro-phenyl)-3-(3-chloro-2-fluoro-phenyl)-4-cyano-5-(2,2-dimethyl-propyl)-pyrrolidine-2-carbonyl]-amino}-3-methoxy-benzoic acid, mPEG-1000 ester [Example 80]” are within 1.5-fold of each other in IC50: 0.0345 µM for the first, 0.0346 µM for the second.

“4-{[(2R,3S,4R,5S)-4-(4-Chloro-2-fluoro-phenyl)-3-(3-chloro-2-fluoro-phenyl)-4-cyano-5-(2,2-dimethyl-propyl)-pyrrolidine-2-carbonyl]-amino}-3-methoxy-benzoic acid 2-[4-(2-hydroxy-ethyl)-piperazin-1-yl]-ethyl ester, PEG-400 ester, hydrochloride salt [Example 62]” and “4-{[(2R,3S,4R,5S)-4-(4-Chloro-2-fluoro-phenyl)-3-(3-chloro-2-fluoro-phenyl)-4-cyano-5-(2,2-dimethyl-propyl)-pyrrolidine-2-carbonyl]-amino}-3-methoxy-benzoic acid, mPEG-2000 ester [Example 82]” are within 1.5-fold of each other in IC50: 0.0293 µM for the first, 0.04 µM for the second.

Work on “4-{[(2R,3S,4R,5S)-4-(4-Chloro-2-fluoro-phenyl)-3-(3-chloro-2-fluoro-phenyl)-4-cyano-5-(2,2-dimethyl-propyl)-pyrrolidine-2-carbonyl]-amino}-3-methoxy-benzoic acid, mPEG-550 ester, hydrochloride [Example 59]” yielded an IC50 of 0.0249 µM.
